From ChEMBL document CHEMBL5241057, “Outline of gelatinase inhibitors as anti-cancer agents: A patent mini-review for 2010-present” (Eur J Med Chem, 2021)

The chains behind the UniProt entries cited, without tags or fusion partners. Where a name states a change or a piece, a line headed by the entry shows the natural chain unless it says otherwise.
UniProt P08253: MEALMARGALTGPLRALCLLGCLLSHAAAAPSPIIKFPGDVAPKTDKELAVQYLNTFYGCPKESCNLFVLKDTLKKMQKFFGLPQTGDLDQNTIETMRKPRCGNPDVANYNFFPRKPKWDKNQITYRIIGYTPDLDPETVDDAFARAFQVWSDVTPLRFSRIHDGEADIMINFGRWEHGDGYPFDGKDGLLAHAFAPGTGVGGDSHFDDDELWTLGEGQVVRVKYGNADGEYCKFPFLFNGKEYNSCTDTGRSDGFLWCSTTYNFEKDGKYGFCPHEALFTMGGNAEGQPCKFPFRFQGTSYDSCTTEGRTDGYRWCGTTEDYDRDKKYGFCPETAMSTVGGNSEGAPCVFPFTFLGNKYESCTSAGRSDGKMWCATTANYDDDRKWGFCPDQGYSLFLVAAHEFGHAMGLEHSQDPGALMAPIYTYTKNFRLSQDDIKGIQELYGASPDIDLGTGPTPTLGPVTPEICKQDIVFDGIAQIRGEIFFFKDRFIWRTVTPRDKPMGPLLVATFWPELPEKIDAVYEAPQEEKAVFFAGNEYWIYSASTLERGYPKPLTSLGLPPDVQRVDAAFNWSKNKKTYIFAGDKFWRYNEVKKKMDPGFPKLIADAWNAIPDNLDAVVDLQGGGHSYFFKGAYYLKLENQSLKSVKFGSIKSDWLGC

Biological target: 72 kDa type IV collagenase (Homo sapiens, UniProt P08253)
Assay: Inhibition of MMP2 (unknown origin)

Work on `N=C(N)Nc1ccc(Oc2ccc(S(=O)(=O)CC3CS3)cc2)cc1` (stereo unspecified) yielded an IC50 of 21 nM.
